Our source for the Drug uptake values is ChEMBL document CHEMBL1138533 (Antimicrob Agents Chemother, 2007).

This series in a line: Drug concentration in beta lactamase-negative Haemophilus influenzae pharmacokinetic simulation model dosed as amoxicillin-clavulanic acid at simulated human serum concentration of 2000/125 mg, po bid after 3 hrs. The format is ADME, organism-based. The following applies: in vivo.

Consider `CC1(C)S[C@@H]2[C@H](NC(=O)[C@H](N)c3ccc(O)cc3)C(=O)N2[C@H]1C(=O)O` [AMOXICILLIN], for which the Drug uptake was 12.5 µg/mL.
